In patent publication US20210401805A1, “Immune CB1 Activation for Obesity Therapy” (University of South Carolina, priority 2020, published 2021):

Columns and labels:
12-week HFD-fed DIO mice = assay: Oral glucose tolerance test in DIO intervention study; assay type: in vivo; conditions: AM251 10 mg/kg oral gavage, 21 consecutive days, WT and CB2−/− DIO mice
[1] = system: epididymal CD11b+F4/80+ ATMs and CD11c+ M1 ATMs; assay: Flow cytometry of epididymal adipose tissue macrophages in DIO intervention study; assay type: in vivo, mice
[2] = system: epididymal ATMs and M1 ATMs of CB2−/− DIO mice; conditions: AM251 10 mg/kg oral gavage, 21 consecutive days
DIO mice = conditions: 4 weeks' treatment of DIO mice; cited from earlier work
[3] = AM251 10 mg/kg oral gavage, 21 consecutive days, WT DIO mice

SMILES: Cc1c(C(=O)NN2CCCCC2)nn(-c2ccc(Cl)cc2Cl)c1-c1ccc(I)cc1 [AM251]
- glucose tolerance (12-week HFD-fed DIO mice): did not alter
- ATMs per gram of adipose tissue [1, 3]: greater
- M1 ATMs per gram of adipose tissue [1, 3]: greater
- abundance of CD11c+ ATMs in visceral adipose tissue ([1]; AM251, 3-week treatment of DIO mice): persistent abundance
- ATMs per gram of adipose tissue greater after treatment [2]: not
- M1 ATMs per gram of adipose tissue greater after treatment [2]: not
- adipose tissue inflammation (DIO mice): decreased
